Earlier results on one substance are cited in patent publication US6525025B2, “Gamma-ketoacid dipeptides as inhibitors of caspase-3” (Merck Frosst Canada & Co., priority 2000, dated 2003).

One series addresses T1, caspase-3 (Homo sapiens, UniProt P42574).
T1 sequence (P42574 29-175 limits assumed): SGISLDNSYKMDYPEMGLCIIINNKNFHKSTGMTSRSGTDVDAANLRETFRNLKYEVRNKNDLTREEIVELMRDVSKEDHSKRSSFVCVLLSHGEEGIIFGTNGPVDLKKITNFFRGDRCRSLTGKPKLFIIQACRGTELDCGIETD
T1 sequence (P42574 176-277 limits assumed): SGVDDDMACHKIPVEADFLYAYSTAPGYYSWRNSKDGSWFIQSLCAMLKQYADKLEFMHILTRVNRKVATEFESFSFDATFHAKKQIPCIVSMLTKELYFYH

The target of another series is T2, caspase-1 (Homo sapiens, UniProt P29466).
T2 sequence (P29466 120-297 limits assumed): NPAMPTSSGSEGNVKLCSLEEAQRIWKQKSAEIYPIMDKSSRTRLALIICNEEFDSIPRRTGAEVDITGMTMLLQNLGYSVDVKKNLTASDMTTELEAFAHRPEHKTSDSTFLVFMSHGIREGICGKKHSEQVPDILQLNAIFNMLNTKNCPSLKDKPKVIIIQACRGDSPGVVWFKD
T2 sequence (P29466 317-404 limits assumed): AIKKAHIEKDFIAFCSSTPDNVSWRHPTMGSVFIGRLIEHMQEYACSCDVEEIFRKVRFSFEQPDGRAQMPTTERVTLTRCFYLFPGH

Take Ac-DEVD-CHO: the inhibition constant Ki (commonly the equilibrium dissociation constant of an inhibitor or competing ligand from its target) on caspase-3 was below 1 nM. Moreover, at caspase-1, the “inhibition of caspase-1 (in words)” value is “weaker but reasonable inhibitor of caspase-1”.
